In publication PMC10683372 (Protein Science : A Publication of the Protein Society, 2023):

What was measured:
α‐thrombin (αT) = α‐thrombin (αT) (Homo sapiens, UniProt P00734); assay: Tight-binding inhibition of αT amidolytic activity on chromogenic substrate S2238; assay type: biochemical; conditions: 25 ± 0.1°C, TBS; αT 250 pM incubated with peptide, S2238 50 μM; tight‐binding model (Eq. 3, 4); average of three independent measurements ± SD
[1] = target: S195A‐hirudin complex (exosite II available) (Homo sapiens, UniProt P00734, S568A); assay: Direct fluorescence binding of [F]‐Haem(45–57) to preformed S195A‐hirudin complex
αT S195A = αT S195A (Homo sapiens, UniProt P00734, S568A); assay: Direct fluorescence binding of [F]‐Haem(45–57) to isolated αT S195A; conditions: [F]‐Haem(45–57) 60 nM titrated with free αT S195A; exc. 492 nm, em. 516 nm; Eq. 1; average of three

Row | SMILES | Ki (α‐thrombin (αT)) [µM] | fold lower affinity for αT‐hirudin complex (exosite II) than for free αT (exosite I) [1] [fold] | Kd ([1]; [F]‐Haem(45–57) 60 nM titrated with S195A‐hirudin complex (active site and exosite I blocked), Eq. 1, average of three) [µM] | Kd (αT S195A) [µM]
1 | CC[C@H](C)[C@H](N)C(=O)N[C@@H](CCCNC(=N)N)C(=O)N[C@@H](Cc1ccccc1)C(=O)NCC(=O)N[C@@H](CCSC)C(=O)NCC(=O)N[C@@H](CCCCN)C(=O)N[C@H](C(=O)N1CCC[C@H]1C(=O)NCC(=O)O)C(C)C | 1.9 | – | – | –
2 | CC[C@H](C)[C@H](NC(=O)[C@H](CCC(=O)O)NC(=O)[C@H](Cc1ccccc1)NC(=O)[C@H](CCC(=O)O)NC(=O)[C@H](CCC(=O)O)NC(=O)[C@H](Cc1ccccc1)NC(=O)[C@H](CCC(=O)O)NC(=O)[C@H](CO)NC(=O)c1ccc2c(c1)C(=O)OC21c2ccc(O)cc2Oc2cc(O)ccc21)C(=O)N[C@@H](CC(=O)O)C(=O)N[C@@H](CCC(=O)O)C(=O)N[C@@H](CCC(=O)O)C(=O)N[C@@H](CCC(=O)O)C(=O)N[C@@H](CCCCN)C(=O)O | – | > 35 | 12.8 | 0.35
